The source of these data is patent publication US20130165628A1, “Double Binding Constructs” (SRI INTERNATIONAL, priority 2011, published 2013).

What is called half-life is the time in which the quantity being followed falls by half. A higher half-life goes with slow loss.

This data set is described as follows: In vivo half life of hSA-binder/flag/biotin 26-amino acid constructs. The following applies: in vivo experimentation. The procedure: 26-amino acid sequences were prepared, each comprising an hSA binder portion (11 amino acids and comprising a cysteine-proline-cysteine sequence capable of forming a disulfide bridge and a turn in the molecule), a first spacer (3 amino acids), a flag portion (8 amino acids), and a second spacer (4 amino acids). The second spacer terminated in an amino group and also comprised a covalently attached biotin moiety. At the other terminus, an acetyl group was present. Three different sequences were prepared, with the final amino acid at the acetyl-terminus varied between alanine (the control compound), arginine (construct 1), and lysine (construct 2).
For the compound `CC[C@H](C)[C@H](NC(=O)[C@H](CC(C)C)NC(=O)[C@H](CCCNC(=N)N)NC(C)=O)C(=O)N[C@@H](CCC(=O)O)C(=O)N[C@@H](CC(=O)O)C(=O)N[C@H](C(=O)N[C@H]1CSSC[C@@H](C(=O)N[C@@H](CC(C)C)C(=O)N[C@@H](Cc2c[nH]c3ccccc23)C(=O)NCCC(=O)N[C@@H](CO)C(=O)NCC(=O)N[C@@H](CC(=O)O)C(=O)N[C@@H](Cc2ccc(O)cc2)C(=O)N[C@@H](CCCCN)C(=O)N[C@@H](CC(=O)O)C(=O)N[C@@H](CC(=O)O)C(=O)N[C@@H](CC(=O)O)C(=O)N[C@@H](CC(=O)O)C(=O)N[C@@H](CCCCN)C(=O)NCCC(=O)N[C@@H](CO)C(=O)NCC(=O)N[C@@H](CCCCNC(=O)CCCC[C@@H]2SC[C@@H]3NC(=O)N[C@@H]32)C(N)=O)NC(=O)[C@@H]2CCCN2C1=O)[C@@H](C)CC` [construct 1], the half-life was 34 h.
`CC[C@H](C)[C@H](NC(=O)[C@H](CC(C)C)NC(=O)[C@H](CCCCN)NC(C)=O)C(=O)N[C@@H](CCC(=O)O)C(=O)N[C@@H](CC(=O)O)C(=O)N[C@H](C(=O)N[C@H]1CSSC[C@@H](C(=O)N[C@@H](CC(C)C)C(=O)N[C@@H](Cc2c[nH]c3ccccc23)C(=O)NCCC(=O)N[C@@H](CO)C(=O)NCC(=O)N[C@@H](CC(=O)O)C(=O)N[C@@H](Cc2ccc(O)cc2)C(=O)N[C@@H](CCCCN)C(=O)N[C@@H](CC(=O)O)C(=O)N[C@@H](CC(=O)O)C(=O)N[C@@H](CC(=O)O)C(=O)N[C@@H](CC(=O)O)C(=O)N[C@@H](CCCCN)C(=O)NCCC(=O)N[C@@H](CO)C(=O)NCC(=O)N[C@@H](CCCCNC(=O)CCCC[C@@H]2SC[C@@H]3NC(=O)N[C@@H]32)C(N)=O)NC(=O)[C@@H]2CCCN2C1=O)[C@@H](C)CC` [construct 2] had a half-life of 53 h.
Then `CC[C@H](C)[C@H](NC(=O)[C@H](CC(C)C)NC(=O)[C@H](C)NC(C)=O)C(=O)N[C@@H](CCC(=O)O)C(=O)N[C@@H](CC(=O)O)C(=O)N[C@H](C(=O)N[C@H]1CSSC[C@@H](C(=O)N[C@@H](CC(C)C)C(=O)N[C@@H](Cc2c[nH]c3ccccc23)C(=O)NCCC(=O)N[C@@H](CO)C(=O)NCC(=O)N[C@@H](CC(=O)O)C(=O)N[C@@H](Cc2ccc(O)cc2)C(=O)N[C@@H](CCCCN)C(=O)N[C@@H](CC(=O)O)C(=O)N[C@@H](CC(=O)O)C(=O)N[C@@H](CC(=O)O)C(=O)N[C@@H](CC(=O)O)C(=O)N[C@@H](CCCCN)C(=O)NCCC(=O)N[C@@H](CO)C(=O)NCC(=O)N[C@@H](CCCCNC(=O)CCCC[C@@H]2SC[C@@H]3NC(=O)N[C@@H]32)C(N)=O)NC(=O)[C@@H]2CCCN2C1=O)[C@@H](C)CC` [control, reference compound], with 0.16 h.
